We go through 2 substances from US6602510B1, “HLA class I A2 tumor associated antigen peptides and vaccine compositions” (priority 2000, dated 2003).

Where “and” joins values, the source holds several entries; their conditions need not be identical. Identical values can stand only once.

Assay [1] relates to HLA-DR molecules (16 most prevalent). The settings on record: cited from earlier work.
Another assay has as its system PBMC from normal donors. Type of assay: cell-based, human.
For assay [2], the system named is patients with recurrent or residual cervical carcinoma. The settings on record: two weeks after vaccination; PBMC stimulated in vitro with 5 μg/ml peptide; proliferation index exceeded 5; listed as PADRE®; cited from earlier work.

For “QYIKANSKFIGITE [Epitope 553.01, reference compound]”, the “number of HLA-DR molecules bound” value in assay [1] is recorded as “seven of 16”. Besides, the “donors with primary T cell responses” value in the assay with PBMC from normal donors is reported as 2 out of 3.
In the case of aKXVAAWTLKAAa-NH2, in assay [2], the “patients with PADRE-specific T cell proliferative response” value was “four of 12 and 4 out of 12”. Also, in the assay on PBMC from normal donors, the “donors with primary T cell responses” value was “all three donors” and the “potency for activation of T cell responses relative to TT 830-843 antigen” value is reported as “about 100 fold”.
